This data set can be described thus: Evaluation for dissolvability of phytochemical (dissolution rate in water). The following applies: concentration of the centrifuged supernatant after shaking in ultrapure water, 21±2° C.; glucosides in terms of the aglycone. The text has this:
In the present invention, the “dissolution rate” is an index indicating dissolvability of a compound into water, and is also represented by the value, in terms of the percentage (%), obtained by dividing a concentration (w/v) of the compound in a supernatant, which is obtained by shaking the compound in pure water to dissolve the compound therein and by centrifuging the solution, by a concentration (w/v) of the compound in pure water before being dissolved therein. The concentration may be measured by using a spectrophotometer. […] The temperature condition in the measurement of the “dissolution rate” is set to 21±2° C.
Furthermore, 10 mL of ultrapure water was added to the glucoside phytochemical such that the amount of aglycone (portion other than carbohydrate obtained by hydrolysis of glucoside) can be equal to 33.3 mg; namely, 67.3 mg of rutin (33.3 mg of quercetin); 89.6 mg of α-glucosyl rutin (33.3 mg of quercetin); 67.3 mg of hesperidin (33.3 mg of hesperetin); or 71.0 mg of naringin (33.3 mg of naringenin). As for the terpenoids, in accordance with the administering amount used in Experiments, 10 mL of ultrapure water was added to 3.3 mg of each of β-carotene and lycopene. The solutions thus prepared were shaken for 3 hours, and then, were centrifuged at 2000×g for 10 minutes. […] The dissolution rate was calculated in accordance with the following formula. […]

For the substance Catechin, the Saturated solubility turned out to be 323 mg/100 g.

The values are drawn from patent US11684644B2, “Composition for promoting absorption of phytochemicals” (MEIJI CO., LTD., priority 2018, dated 2023).
